Test results from US8236792B2, “Substituted pyrrolidine amides as modulators of the histamine H3 receptor” (Janssen Pharmaceutica NV, priority 2008, dated 2012).

The chains behind the UniProt entries cited, without tags or fusion partners. Where a name states a change or a piece, a line headed by the entry shows the natural chain unless it says otherwise.
UniProt Q9Y5N1: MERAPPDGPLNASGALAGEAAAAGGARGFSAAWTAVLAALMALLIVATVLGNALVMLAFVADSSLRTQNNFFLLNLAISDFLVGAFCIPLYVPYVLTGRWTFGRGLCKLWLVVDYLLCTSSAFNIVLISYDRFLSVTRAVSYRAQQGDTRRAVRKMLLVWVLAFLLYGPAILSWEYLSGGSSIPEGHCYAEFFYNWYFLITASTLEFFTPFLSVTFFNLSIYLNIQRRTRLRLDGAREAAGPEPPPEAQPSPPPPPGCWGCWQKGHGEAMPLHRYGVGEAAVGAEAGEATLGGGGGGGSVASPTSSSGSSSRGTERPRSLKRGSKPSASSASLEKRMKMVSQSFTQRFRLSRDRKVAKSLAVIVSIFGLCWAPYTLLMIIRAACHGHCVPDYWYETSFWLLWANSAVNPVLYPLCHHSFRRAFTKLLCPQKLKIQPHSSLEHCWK
UniProt Q9QYN8: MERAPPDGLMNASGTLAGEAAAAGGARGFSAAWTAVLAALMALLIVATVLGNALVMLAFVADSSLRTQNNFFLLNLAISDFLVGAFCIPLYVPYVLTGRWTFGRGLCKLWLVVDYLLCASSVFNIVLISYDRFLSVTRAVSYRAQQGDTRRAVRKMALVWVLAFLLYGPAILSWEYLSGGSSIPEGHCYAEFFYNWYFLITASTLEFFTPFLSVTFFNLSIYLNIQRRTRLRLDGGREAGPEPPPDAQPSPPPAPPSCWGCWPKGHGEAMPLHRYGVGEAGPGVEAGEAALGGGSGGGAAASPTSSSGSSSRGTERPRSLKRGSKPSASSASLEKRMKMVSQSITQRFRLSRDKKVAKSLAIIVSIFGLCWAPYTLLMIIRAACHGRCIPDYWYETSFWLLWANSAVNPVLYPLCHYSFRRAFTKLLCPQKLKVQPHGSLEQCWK

Columns and labels:
[1] = biological target: T1, human H3 receptor (Homo sapiens, UniProt Q9Y5N1); test: Cyclic AMP Accumulation (human H3 reporter subline); assay type: cell-based; parameters: expressed in transfected cells; host or cells: SK-N-MC sublines with a reporter construct
[2] = biological target: T1, human H3 receptor; test: H3 Receptor Binding (Human) Method 2, [125I]-iodoproxyfan competitive radioligand binding; parameters: expressed in transfected cells
[3] = biological target: T2, cloned human H3 receptors (Homo sapiens, UniProt Q9Y5N1); test: H3 Receptor Binding (Human) Method 1; settings: receptor stably expressed in SK-N-MC cells, free base forms, average of results
T2 construct: expressed in transfected cells

[4] = biological target: T3, rat H3 receptor (Rattus norvegicus, UniProt Q9QYN8); test: Cyclic AMP Accumulation (rat H3 reporter subline); assay type: cell-based
T3 construct: expressed in transfected cells; host or cells: SK-N-MC sublines with a reporter construct

Row | SMILES | Ki [2] [nM] | Ki [3] [nM] | also measured
1 | CN1C[C@@H](Oc2ccc(F)cc2)C[C@@H]1C(=O)N1CCCN(C2CCC2)CC1 [Example 110, (2R,4S)-1-Methyl-2-(4-cyclobutyl-[1,4]diazepane-1-carbonyl)-4-(4-fluoro-phenoxy)-pyrrolidine] | 2 | – | Human pA2 ([1]; SK-N-MC subline with reporter construct and human H3 receptor, free base or trifluoroacetate salt, average): 9.13
2 | CN1C[C@@H](Oc2ccc(F)cc2)C[C@H]1C(=O)N1CCCN(C2CCC2)CC1 [Example 106, (2S,4S)-1-Methyl-2-(4-cyclobutyl-[1,4]diazepane-1-carbonyl)-4-(4-fluoro-phenoxy)-pyrrolidine] | – | 71 | –
3 | COc1cccc(O[C@@H]2CN[C@@H](C(=O)N3CCCN(C4CCC4)CC3)C2)c1 [Example 73, (2R,4S)-4-(3-Methoxy-phenoxy)-2-(4-cyclobutyl-[1,4]diazepane-1-carbonyl)-pyrrolidine] | 1140 | – | –
4 | N#Cc1cccc(O[C@@H]2CN[C@@H](C(=O)N3CCCN(C4CCC4)CC3)C2)c1 [Example 70, (2R,4S)-4-(3-Cyano-phenoxy)-2-(4-cyclobutyl-[1,4]diazepane-1-carbonyl)-pyrrolidine] | – | 1 | Kb [1]: 0.692 nM; Kb [4]: 6.92 nM
5 | CC(C)O[C@H]1CN[C@H](C(=O)N2CCCN(C3CCC3)CC2)C1 [Example 104, (2S,4R)-2-(4-Cyclobutyl-[1,4]diazepane-1-carbonyl)-4-isopropoxy-pyrrolidine] | – | 58 | –
